Data: ChEMBL document CHEMBL1133449 (J Med Chem, 2000)

Target: T1, Acetylcholinesterase (Mus musculus) (UniProt P21836)
T1 sequence (whole entry): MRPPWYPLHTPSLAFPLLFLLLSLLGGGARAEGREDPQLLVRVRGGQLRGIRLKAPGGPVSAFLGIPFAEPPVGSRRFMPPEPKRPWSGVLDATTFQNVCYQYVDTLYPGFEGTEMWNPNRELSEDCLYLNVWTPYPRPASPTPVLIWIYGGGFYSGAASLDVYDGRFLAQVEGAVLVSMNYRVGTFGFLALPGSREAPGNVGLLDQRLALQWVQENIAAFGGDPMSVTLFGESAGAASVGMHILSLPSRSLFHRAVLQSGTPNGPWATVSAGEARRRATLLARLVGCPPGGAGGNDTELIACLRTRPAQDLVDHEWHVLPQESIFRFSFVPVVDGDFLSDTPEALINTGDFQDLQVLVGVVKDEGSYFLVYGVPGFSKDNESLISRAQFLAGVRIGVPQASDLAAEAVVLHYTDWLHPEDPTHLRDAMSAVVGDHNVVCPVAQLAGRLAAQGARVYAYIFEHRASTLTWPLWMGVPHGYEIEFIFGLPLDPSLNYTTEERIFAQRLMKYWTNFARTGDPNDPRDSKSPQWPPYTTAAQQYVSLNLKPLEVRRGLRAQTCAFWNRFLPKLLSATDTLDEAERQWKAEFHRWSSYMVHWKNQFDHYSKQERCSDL
Experiment: Ex Vivo evaluation of the Compound for the percentage of inhibition of brain acetylcholinesterase activity of drug-treated mice vs untreated controls (10 uM/Kg was used)

## CCC1=CC2Cc3nc4cccc(F)c4c(N)c3C(C1)C2 (configuration not stated)
  inhibition: 3.6%

## CCC1=CC2Cc3nc4cc(F)ccc4c(N)c3C(C1)C2 (configuration not stated)
  inhibition: 10.4%
